From ChEMBL document CHEMBL1671631, “Staphylococcus aureus PBP4 is essential for beta-lactam resistance in community-acquired methicillin-resistant strains” (2008)

System: Staphylococcus aureus
Experiment: Antimicrobial activity against wild type community-acquired methicillin-resistant Staphylococcus aureus MW2 ex serotype USA400 by microdilution method
Assay type: functional
Method in brief: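 Broth microdilution MIC per CLSI guidelines, inoculum 5 x 10^5 CFU/ml, confirmed by plating serial dilutions. Run in triplicate; three independent clones per mutant. Reported as the median of at least three independent experiments. MBC: clear wells plated onto drug-free tryptic soy agar, 37°C, 24 and 48 h. pEPSA5-carrying strains tested with and without xylose, no chloramphenicol.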

## Cc1onc(-c2ccccc2)c1C(=O)N[C@@H]1C(=O)N2[C@@H]1SC(C)(C)[C@@H]2C(=O)O [OXACILLIN]
  MIC: 128 µg/mL (≈ 319 µM)

Converted amounts (≈) assume the structure as drawn.
